Data taken from patent US9890152B2 (Genentech, Inc., priority 2012, dated 2018).
Counter-ions that a name gives are not always drawn.

Chains of the proteins cited; added tags and fusions are not shown. Residues count along the entry.
UniProt P00533, 25-1210 T790M/L858R limits assumed: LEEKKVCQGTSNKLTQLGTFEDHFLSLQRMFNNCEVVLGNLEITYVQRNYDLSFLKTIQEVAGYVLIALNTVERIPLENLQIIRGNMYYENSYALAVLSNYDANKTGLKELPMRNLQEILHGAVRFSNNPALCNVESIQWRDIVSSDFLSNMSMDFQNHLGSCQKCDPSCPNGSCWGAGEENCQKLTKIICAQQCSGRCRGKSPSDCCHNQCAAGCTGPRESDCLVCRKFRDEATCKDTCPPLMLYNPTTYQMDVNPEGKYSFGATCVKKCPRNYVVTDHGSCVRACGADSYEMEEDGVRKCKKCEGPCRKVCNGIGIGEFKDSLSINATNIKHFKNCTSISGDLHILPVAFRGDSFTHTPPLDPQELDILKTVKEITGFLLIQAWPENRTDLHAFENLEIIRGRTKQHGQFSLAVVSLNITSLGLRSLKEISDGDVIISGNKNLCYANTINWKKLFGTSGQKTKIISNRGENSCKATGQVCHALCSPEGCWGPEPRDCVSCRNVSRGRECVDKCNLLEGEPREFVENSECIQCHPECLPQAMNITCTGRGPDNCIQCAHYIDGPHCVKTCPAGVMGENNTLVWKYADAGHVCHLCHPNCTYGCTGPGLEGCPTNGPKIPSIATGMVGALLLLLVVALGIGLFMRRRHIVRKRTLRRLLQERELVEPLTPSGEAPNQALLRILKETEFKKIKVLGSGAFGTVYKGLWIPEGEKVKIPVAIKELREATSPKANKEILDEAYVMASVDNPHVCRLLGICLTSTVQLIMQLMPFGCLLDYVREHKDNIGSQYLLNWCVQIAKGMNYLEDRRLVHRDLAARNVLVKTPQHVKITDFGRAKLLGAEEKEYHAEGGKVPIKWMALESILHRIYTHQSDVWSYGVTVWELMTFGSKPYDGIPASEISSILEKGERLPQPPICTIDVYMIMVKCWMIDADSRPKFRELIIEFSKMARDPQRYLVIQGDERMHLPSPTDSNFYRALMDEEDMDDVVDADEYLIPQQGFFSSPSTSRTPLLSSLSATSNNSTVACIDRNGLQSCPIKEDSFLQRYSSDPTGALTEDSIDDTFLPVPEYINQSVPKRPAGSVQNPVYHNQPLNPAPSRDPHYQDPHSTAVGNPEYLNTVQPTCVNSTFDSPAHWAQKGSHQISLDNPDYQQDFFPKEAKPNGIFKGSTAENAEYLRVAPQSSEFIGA

Biological target: EGFR T790M L858R (Homo sapiens, UniProt P00533, L858R/T790M)
Test: biochemical
Conditions: EGFR(T790M/L858R) Ki (μM), 5 μM ATP, 30 min, room temperature; apparent Ki (Morrison) converted by Cheng-Prusoff, Km of ATP 1.3 μM

Ki [µM] | SMILES
0.00834 | CC(C)n1c([C@H](C)O)nc2cnc(Nc3ccnc(-c4cnn(S(=O)(=O)C5CC5)c4)n3)cc21 [Example 562, (S)-1-{6-[2-(1-Cyclopropanesulfonyl-1H-pyrazol-4-yl)pyrimidin-4-ylamino]-1-isopropyl-1H-imidazo[4,5-c]pyridin-2-yl}ethanol]
1.69 | CC(C)n1cnc2cnc(Nc3ccnc(N4CCC(C(=O)N(C)C)C4)n3)cc21 (stereo not drawn) [Example 80, 1-(4-(1-isopropyl-1H-imidazo[4,5-c]pyridin-6-ylamino)pyrimidin-2-yl)-N,N-dimethylpyrrolidine-3-carboxamide]
1.28 | CC(C)n1cnc2cnc(Nc3ccnc(N4CCC5(CCNC5=O)C4)n3)cc21 (stereo not drawn) [Example 192]
1.02 | CC(C)n1cnc2cnc(Nc3ccnc(NCC4CCOCC4)n3)cc21 [Example 208]
0.577 | CC(C)n1cnc2cnc(Nc3ccnc(N4CCC(OCCN(C)C)CC4)n3)cc21 [Example 161, {2-[4-(2-Dimethylaminoethoxy)piperidin-1-yl]pyrimidin-4-yl}-(1-isopropyl-1H-imidazo[4,5-c]pyridin-6-yl)amine]
0.00142 | CO[C@@H]1CCN(c2nccc(Nc3cc4c(cn3)nc([C@@H](C)O)n4[C@@H](C)C(F)(F)F)n2)C[C@@H]1F [Example 290, (R)-1-[6-[2-((3S,4R)-3-Fluoro-4-methoxypiperidin-1-yl)-pyrimidin-4-ylamino]-1-((S)-2,2,2-trifluoro-1-methylethyl)-1H-imidazo[4,5-c]pyridin-2-yl]ethanol]
0.551 | CC(C)n1cnc2cnc(Nc3ccnc(N4CCOC5(CCOC5)C4)n3)cc21 (stereo not drawn) [Example 211]
0.111 | CC(C)n1cnc2cnc(Nc3ccnc(-c4cn[nH]c4)n3)cc21 [Example 96, N-(2-(1H-pyrazol-4-yl)pyrimidin-4-yl)-1-isopropyl-1H-imidazo[4,5-c]pyridin-6-amine]
0.00417 | C[C@H](n1c([C@@H](C)O)nc2cnc(Nc3ccnc(OCC(C)(C)S(C)(=O)=O)n3)cc21)C(F)(F)F [Example 609, (R)-1-[6-[2-(2-Methanesulfonyl-2-methylpropoxy)pyrimidin-4-ylamino]-1-((S)-2,2,2-trifluoro-1-methylethyl)-1H-imidazo[4,5-c]pyridin-2-yl]ethanol]
0.0047 | CO[C@H]1CCN(c2nccc(Nc3cc4c(cn3)nc(CO)n4C(C)C)n2)C[C@H]1F [Example 655]
0.0153 | CC(C)n1c(CO)nc2cnc(Nc3ccnc(N4C[C@@H](F)[C@@H](O)C(C)(C)C4)n3)cc21 [Example 650]
0.353 | CC(C)n1cnc2cnc(Nc3ccnc(N4CC5COCC5C4)n3)cc21 (stereo not drawn) [Example 218]
0.181 | CC(C)n1cnc2cnc(Nc3ccnc(N4CCC5OCCC5C4)n3)cc21 (stereo not drawn) [Example 195]
0.105 | CC(C)n1cnc2cnc(Nc3ccnc(NC4COC5(CCNCC5)C4)n3)cc21 (stereo not drawn) [Example 229]
0.0774 | Cc1nc2cnc(Nc3ccnc(-c4cnn(CC(N)=O)c4)n3)cc2n1C(C)C [Example 413, 2-(4-(4-((1-isopropyl-2-methyl-1H-imidazo[4,5-c]pyridin-6-yl)amino)pyrimidin-2-yl)-1H-pyrazol-1-yl)acetamide]
0.0205 | CC(C)n1cnc2cnc(Nc3ccnc(N4CCC5(CCCO5)CC4)n3)cc21 [Example 141, (1-Isopropyl-1H-imidazo[4,5-c]pyridin-6-yl)-[2-(1-oxa-8-azaspiro[4.5]dec-8-yl)pyrimidin-4-yl]amine formate salt]
1.3 | COC1CN(c2nccc(Nc3cc4c(cn3)ncn4C(C)C)n2)C1 [Example 17, (1-Isopropyl-1H-imidazo[4,5-c]pyridin-6-yl)-[2-(3-methoxyazetidin-1-yl)pyrimidin-4-yl]amine]
0.866 | Cc1nc2cnc(Nc3ccnc(Nc4ccn(C)n4)n3)cc2n1C(C)C [Example 415, N^4-(1-isopropyl-2-methyl-1H-imidazo[4,5-c]pyridin-6-yl)-N^2-(1-methyl-1H-pyrazol-3-yl)pyrimidine-2,4-diamine]
0.305 | COC1CCN(c2nccc(Nc3cc4c(cn3)nc(C)n4C(C)c3ccc(C(N)=O)cc3)n2)CC1 (stereo not drawn) [Example 354, 4-(1-(6-((2-(4-Methoxypiperidin-1-yl)pyrimidin-4-yl)amino)-2-methyl-1Himidazo[4,5-c]pyridin-1-yl)ethyl)benzamide]
1.32 | CC(C)n1cnc2cnc(Nc3ccnc(NC4CCCS(=O)(=O)C4)n3)cc21 (stereo not drawn) [Example 106, 3-((4-((1-isopropyl-1H-imidazo[4,5-c]pyridin-6-yl)amino)pyrimidin-2-yl)amino)tetrahydro-2H-thiopyran 1,1-dioxide]
0.191 | Cc1nc2cnc(Nc3ccnc(NCC(C)(C)CO)n3)cc2n1C(C)C [Example 519, 3-[4-(1-Isopropyl-2-methyl-1H-imidazo[4,5-c]pyridin-6-ylamino)pyrimidin-2-ylamino]-2,2-dimethylpropan-1-ol]

Ki [µM] | SMILES
0.621 | Cc1nc2cnc(Nc3ccnc(SCC(C)(C)C(N)=O)n3)cc2n1C(C)C [Example 343, 3-((4-((1-Isopropyl-2-methyl-1H-imidazo[4,5-c]pyridin-6-yl)amino)pyrimidin-2-yl)thio)-2,2-dimethylpropanamide]
0.702 | COC(C)(C)CNc1nccc(Nc2cc3c(cn2)ncn3C(C)C)n1 [Example 193]
0.00323 | CC(n1cc(C(=O)NC2CCOCC2)c2cnc(Nc3ccnc(N4CC[C@@H](O)[C@@H](F)C4)n3)cc21)C(F)(F)F (single isomer, unassigned) [Example 640]
0.287 | Cc1nc2cnc(Nc3ccnc(NCC(C)(O)C(N)=O)n3)cc2n1C(C)C (stereo not drawn) [Example 582, 2-Hydroxy-3-[4-(1-isopropyl-2-methyl-1H-imidazo[4,5-c]pyridin-6-ylamino)pyrimidin-2-ylamino]-2-methylpropionamide]
0.484 | Cc1nc2cnc(Nc3ccnc(C4CCOCC4)n3)cc2n1C(C)C [Example 501, 1-Isopropyl-2-methyl-N-(2-(tetrahydro-2H-pyran-4-yl)pyrimidin-4-yl)-1H-imidazo[4,5-c]pyridin-6-amine]
0.0497 | CC(C)n1c(CO)nc2cnc(Nc3ccnc(-c4cnn(C(F)F)c4)n3)cc21 [Example 408, (6-((2-(1-(difluoromethyl)-1H-pyrazol-4-yl)pyrimidin-4-yl)amino)-1-isopropyl-1H-imidazo[4,5-c]pyridin-2-yl)methanol]
0.334 | Cc1nc2cnc(Nc3ccnc(-c4cncn4C)n3)cc2n1C(C)C [Example 311, (1-Isopropyl-2-methyl-1H-imidazo[4,5-c]pyridin-6-yl)-[2-(3-methyl-3H-imidazol-4-yl)pyrimidin-4-yl]amine]
0.00646 | COCCOc1nc2cnc(Nc3ccnc(-c4cnn(S(=O)(=O)C5CC5)c4)n3)cc2n1C(C)C [Example 536, [2-(1-Cyclopropanesulfonyl-1H-pyrazol-4-yl)-pyrimidin-4-yl]-[1-isopropyl-2-(2-methoxy-ethoxy)-1H-imidazo[4,5-c]pyridin-6-yl]amine]
0.00365 | CC(C)n1c(CO)nc2cnc(Nc3ccnc(-c4cnc(N)s4)n3)cc21 [Example 615, {6-[2-(2-Aminothiazol-5-yl)pyrimidin-4-ylamino]-1-isopropyl-1H-imidazo[4,5-c]pyridin-2-yl}methanol]
0.00327 | Cc1nc2cnc(Nc3ccnc(-c4cnc(N)s4)n3)cc2n1C(C)C [Example 614, [2-(2-Aminothiazol-5-yl)pyrimidin-4-yl]-(1-isopropyl-2-methyl-1H-imidazo[4,5-c]pyridin-6-yl)amine]
0.122 | CC(C)n1cnc2cnc(Nc3ccnc(N4CC(F)C(F)C4)n3)cc21 (stereo not drawn) [Example 190]
0.342 | Cc1nc2cnc(Nc3ccnc(-c4cnn(C5CCS(=O)(=O)C5)c4)n3)cc2n1C(C)C (stereo not drawn) [Example 432, 3-(4-(4-((1-isopropyl-2-methyl-1H-imidazo [4,5-c]pyridin-6-yl)amino)pyrimidin-2-yl)-1H-pyrazol-1-yl)tetrahydrothiophene 1,1-dioxide]
0.00354 | CO[C@@H]1CCN(c2nccc(Nc3cc4c(cn3)nc([C@@H](C)O)n4C(C)C)n2)C[C@@H]1F [Example 659]
0.119 | CC(C)n1c(CO)nc2cnc(Nc3ccnc(N4CC5CC4C5)n3)cc21 [Example 692]
0.292 | CC(C)n1cnc2cnc(Nc3ccnc(N4CCN(S(C)(=O)=O)CC4)n3)cc21 [Example 16, (1-Isopropyl-1H-imidazo[4,5-c]pyridin-6-yl)-[2-(4-methanesulfonylpiperazin-1-yl)pyrimidin-4-yl]-amine]
0.0343 | Cc1nc2cnc(Nc3ccnc(NCC4(C(N)=O)CC4)n3)cc2n1C(C)C [Example 552, 1-{[4-(1-Isopropyl-2-methyl-1H-imidazo[4,5-c]pyridin-6-ylamino)pyrimidin-2-ylamino]methyl}cyclopropane carboxylic acid amide]
0.439 | CC(C)n1cnc2cnc(Nc3ccnc(NCCC(N)=O)n3)cc21 [Example 89, 3-(4-(1-isopropyl-1H-imidazo[4,5-c]pyridin-6-ylamino)pyrimidin-2-ylamino)propanamide]
0.0452 | CC(C)n1cnc2cnc(Nc3ccnc(NCC(C)(C)C(N)=O)n3)cc21 [Example 85, 3-(4-(1-isopropyl-1H-imidazo[4,5-c]pyridin-6-ylamino)pyrimidin-2-ylamino)-2,2-dimethylpropanamide]
1.46 | CC(C)n1cnc2cnc(Nc3ccnc(N4CC5(CCCNC5)C4)n3)cc21 [Example 223]
0.00445 | CC(C)n1c(C2CCO2)nc2cnc(Nc3ccnc(-c4cnn(S(=O)(=O)C5CC5)c4)n3)cc21 (racemic) [Example 570, (±)-[2-(1-Cyclopropanesulfonyl-1H-pyrazol-4-yl)pyrimidin-4-yl]-(1-isopropyl-2-oxetan-2-yl-1H-imidazo[4,5-c]pyridin-6-yl)amine]
0.0207 | CC(=O)N(C)c1cn(C(C)C)c2cc(Nc3ccnc(-c4cnn(S(=O)(=O)C5CC5)c4)n3)ncc12 [Example 387, N-(6-((2-(1-(cyclopropylsulfonyl)-1H-pyrazol-4-yl)pyrimidin-4-yl)amino)-1-isopropyl-1H-pyrrolo[3,2-c]pyridin-3-yl)-N-methylacetamide]
